Patent publication US11903936B2, “Anti-malarial agents” (THE BOARD OF REGENTS OF THE UNIVERSITY OF TEXAS SYSTEM, priority 2019, dated 2024)

System: parasitized human erythrocytes
Settings: mouse, in vivo

## Cc1c(C2(c3ccc(C(F)(F)F)c(C#N)c3)CC2)c[nH]c1C(=O)NC(C)c1nc[nH]n1 (single isomer, unassigned) [Compound 26, 4-{1-[3-cyano-4-(trifluoromethyl)phenyl]cyclopropyl}-3-methyl-N-[1-(1H-1,2,4-triazol-3-yl)ethyl]-1H-pyrrole-2-carboxamide]
  CED90: <4 µM/day
  DOR (day of recrudescence): 22
  blood level of compound required for efficacy: lower
